# According to PubChem BioAssay AID602409 (Sanford-Burnham Center for Chemical Genomics, 2012):
# Chains of the proteins cited; added tags and fusions are not shown.
# UniProt O00574, whole entry: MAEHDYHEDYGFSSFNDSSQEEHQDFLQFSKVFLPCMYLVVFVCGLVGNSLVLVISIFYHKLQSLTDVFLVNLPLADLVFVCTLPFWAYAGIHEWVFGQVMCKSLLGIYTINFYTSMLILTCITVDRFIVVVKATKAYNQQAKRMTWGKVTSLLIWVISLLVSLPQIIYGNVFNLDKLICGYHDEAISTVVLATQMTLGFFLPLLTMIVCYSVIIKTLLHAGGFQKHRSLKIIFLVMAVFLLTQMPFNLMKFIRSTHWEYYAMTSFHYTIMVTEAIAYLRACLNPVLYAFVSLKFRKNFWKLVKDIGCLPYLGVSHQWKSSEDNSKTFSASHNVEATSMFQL
# This is a selection; strong and weak results do not stand in their true shares. Activity calls are given as the source filed them.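 Rule for the calls: active = mean inhibition over four retests above 40%; inactive = the rest.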
# Target: C-X-C chemokine receptor type 6 (Homo sapiens) (UniProt O00574)
# Experiment: CXCR6 receptor antagonists, confirmation, cell-based, single concentration, beta-arrestin, luminescence (AID 602409);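 note: receptor stimulated with 10 nM CXCL16 agonist; beta-galactosidase fragment complementation upon beta-arrestin recruitment to receptor; plate controls were CXCL16 plus DMSO for no effect and DMSO without CXCL16 for full effect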
# Conditions: CHO-K1 CXCR6 PathHunter beta-arrestin, at 20 µM, hits give high values
row,SMILES,inhibition
1,O=[N+]([O-])c1cc([N+](=O)[O-])c(Nc2ccc(Cl)cc2)c([N+](=O)[O-])c1,inactive: 34.5%
2,O=C(O)c1cccc(Nc2c([N+](=O)[O-])cc([N+](=O)[O-])cc2[N+](=O)[O-])c1,active: 43.9%
3,Cc1ccc(Nc2c([N+](=O)[O-])cc([N+](=O)[O-])cc2[N+](=O)[O-])cc1,active: 46.4%
